In experiment [1] the target is T1, PGT (Homo sapiens, UniProt Q92959). Nature of the experiment: [3H]PGE2 influx into cultured MGCs. It is filed as cell-based. Particulars: hCG 1U/ml 24 hours, then 1.5 nM [3H]PGE2 for 60 minutes; after first 20 minutes. Here is the method: To confirm the role of PGT in PGE2 uptake, complementary influx experiments were also carried out. Cultured FSH-pretreated MGCs (48 hours) were initially treated with or without hCG (1U/ml) for 24 hours (to induce PGT expression) and then re-incubated with 1.5 nM of [^3H]PGE2 for 60 minutes. Intracellular [^3H]PGE2 levels were measured at intervals over the 60 minutes incubation period.

A short description of experiment [2]: Serum progesterone levels (corpus luteum function) in PMSG-primed/hCG-triggered mice. It is filed as in vivo. As to conditions: 24 hours post-hCG injection. The method, then: In order to assess corpus luteum function, serum progesterone levels were measured in PMSG-primed/hCG-triggered mice in the absence or presence of DIDS.
Experiment [3] relates to whole ovarian PGT transcripts. Nature of the experiment: Whole ovarian PGT transcripts in PMSG-primed/hCG-triggered immature mouse superovulation model. The format is in vivo. Here is the method: FIG. 5A presents the regulation ovarian PGT expression in vivo. Pregnant mare serum gonadotropin (PMSG)-primed/hCG-triggered was applied to immature mouse superovulation model for 48 hours (FIG. 5A, t=0) which augmented the level of PGT in the ovaries, relative to control (FIG. 5A, saline) by 2.3 folds (p<0.02). Administration of hCG further augmented the whole ovarian PGT transcripts to a peak noted 9 hours later (5.8 fold, p<0.003).

For experiment [4], the target named is T1, PGT. Nature of the experiment: PGE2 concentration in media of MGCs by enzyme immunoassay (EIA). The format is cell-based. As to conditions: hCG 1U/ml 24 hours, FSH-pretreated MGCs. Here is the method:
The concentration of PGE2 in the media was then measured by an enzyme immunoassay (EIA).

The next experiment relates to PGT transcripts in MGCs. Nature of the experiment: PGT transcripts (qPCR) in cultured FSH-pretreated human mural granulosa cells. As to conditions: FSH-pretreated MGCs (48 hours), 24 hours. Background: Quantitative PCR measures a nucleic acid by following its amplification.

These results are taken from US20180008569A1, “PROSTAGLANDIN TRANSPORTER INHIBITORS FOR INHIBITING OVULATION” (TEL HASHOMER MEDICAL RESEARCH INFRASTRUCTURE AND SERVICES …, priority 2015, published 2018).

For human chorionic gonadotropin [hCG], the “intracellular [3H]PGE2 uptake” value with PGT [1] is “continued [^3H]PGE2 influx was noted only in hCG-treated MGCs”. In addition, the serum progesterone levels result in experiment [2] was “significantly increased”. The “whole ovarian PGT transcripts, peak” value in experiment [3] (9 hours after hCG administration) is 5.8 fold. Besides, the “whole ovarian PGT transcripts” value in experiment [3] (12 hours after hCG administration) is “back at baseline levels”. The “increase in the concentration of PGE2 in conditioned media” value in the experiment with PGT [4] turned out to be 2 fold. The “induction of PGT transcripts” value with PGT transcripts in MGCs (hCG 1 U/ml) was found to be 34 fold; with PGT transcripts in MGCs (hCG 10 U/ml), 46 fold.
